Assay results as given in US8021570B2, “β-peptide lyotropic liquid crystals and methods of manufacture and use thereof” (Wisconsin Alumni Research Foundation, priority 2006, dated 2011).

Experiment: Optical microscopy of aqueous β-peptide solutions between crossed polarizing filters (birefringence = LC phase formation)
Assay type: physicochemical
Details: aqueous solution, room temperature
Excerpt: The inventors used optical microscopy for initial evaluation of aqueous solutions of 1-5. For each β-peptide, aqueous solutions of varying concentration were drawn into microcapillaries and examined between crossed polarizing filters at room temperature (FIGS. 1 and 3). In such experiments, the observation of birefringence is taken as evidence of LC phase formation. […] Increasing β-peptide length by one triad, to generate 3, led to LC behavior at lower concentrations, as shown by the image obtained for a 10 wt % sample (61 mM, FIG. 1C). […]
β-Peptides were weighed into glass vials, diluted to the desired concentration with water, and left on an oscillatory shaker overnight to ensure dissolution. β-peptide solutions were then drawn into a 2 μL microcapillary (Drummond), and the ends were sealed with a high viscosity vacuum grease (Dow-Corning) Microcapillaries were placed on a glass slide and imaged on an Olympus BX-60 microscope (Tokyo, Japan) in transmission mode between crossed polarizing filters using a digital camera (Olympus C2020 Zoom). […] Temperature was recorded from a thermostat but was not further calibrated.
Materials and Methods • Materials. […] To assess the upper limit of concentration, a 1 μL droplet of a concentrated peptide solution was allowed to slowly evaporate while being monitored for birefringence. […]

Q: Which “concentration at which birefringence / LC phase formation is observed” value does the source give for “biotin-β^3-hGly-β^3-hTyr-(ACHC-ACHC-β^3-hLys)3 [entry 14]” here?
A: Its value is 6 wt %.
